Sequences of proteins named here, by UniProt entry; tags and fusion partners are left off. Residues count along the entry.
UniProt P01375, 77-233 limits assumed: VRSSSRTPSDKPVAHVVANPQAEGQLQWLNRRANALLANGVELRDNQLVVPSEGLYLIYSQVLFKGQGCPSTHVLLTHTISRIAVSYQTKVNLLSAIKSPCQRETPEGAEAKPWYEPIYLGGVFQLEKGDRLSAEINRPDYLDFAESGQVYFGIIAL

What follows are molecules tested against TNFα / TNFα receptor (TNFα R1/Fc) (Homo sapiens, UniProt P01375) (assay: Inhibition of binding of TNFα to the TNFα receptor (plate ELISA competition)). Settings: read-out: Activity (IC50, inhibition of TNFα binding to TNFα R1/Fc); Table 2.
Description: The compounds listed in Table 2 below were assayed for ability to inhibit binding of TNFα to the TNFα receptor (TNFα R1/Fc). The assays were performed as described in the following procedure: TNFα (R&D Systems) was coated on high binding plate wells (Corning 96-well) at a single uniform concentration of 15 nM, 100 μL/well in PBS. The coating proceeded for 30 minutes at 37° C. then 10 minutes at 4° C. The coated plate was washed with PBST, then 250 μL/well of blocking solution (PBST 0.1% BSA, bovine serum albumin) was added and incubation proceeded for 30-45 minutes at room temperature with agitation. The solution phase competition proceeded separately with the dilutions of test compound in PBST (phosphate buffered saline with Tween 20), 2% DMSO in a polypropylene plate (Corning 96-well storage plate) with a single concentration, 8.33 nM of the high affinity receptor for TNFα (R&D Systems). This solution phase incubation proceeded for 30 minutes at room temperature with agitation and was then added to the washed TNFα coated assay plate, 100 μL/well, and was incubated for a further 30 minutes at room temperature with agitation. The assay plate was washed and 100 μL goat anti-human IgG (Fc) HRP labeled antibody in PBST, 13 pM, (KPL Cat#04-10-2) was added to each well. This incubation proceeded for 25-30 minutes at room temperature with agitation. Following this incubation step, the plate was washed and a 100 μL TMB solution (SUREBLUE™ TMB Peroxidase substrate, KPL) was added per well and allowed to stand approximately 3-5 minutes for development. The TMB reaction was stopped with the addition of 0.5N HCl and then the plate was read for absorbance at 450 nm.
With `O=C1COc2ccc(cc2)C[C@@H](C(=O)O)NC(=O)[C@H](Cc2c[nH]c3ccccc23)NC(=O)[C@@H](Cc2ccc(-c3ccccc3)cc2)NC(=O)[C@H](Cc2ccncc2)N1` [Compound 653] the IC50 was less than 10 µM. Molecule `CS(=O)(=O)CC[C@@H]1NC(=O)COc2ccc(cc2)C[C@@H](C(=O)O)NC(=O)[C@H](CCc2ccccc2)NC(=O)[C@@H](Cc2ccc(-c3ccccc3)cc2)NC1=O` has an IC50 of less than 10 µM. In the case of `O=C1COc2ccc(cc2)C[C@@H](C(=O)NCS(=O)(=O)O)NC(=O)[C@H](Cc2ccc(-c3cccnc3)cc2)NC(=O)[C@@H](Cc2ccc(-c3ccccc3)cc2)NC(=O)[C@H](Cc2cccs2)N1`, the IC50 is reported as less than 10 µM. `CS(=O)(=O)NC(=O)[C@@H]1Cc2ccc(cc2)OCC(=O)N[C@@H](Cc2cccs2)C(=O)N[C@H](Cc2ccc(-c3ccccc3)cc2)C(=O)N[C@@H](CCc2ccccc2)C(=O)N1` showed an IC50 of less than 10 µM. For `O=C1COc2ccc(cc2)C[C@@H](C(=O)NCc2nnn[nH]2)NC(=O)[C@H](CCc2ccccc2)NC(=O)[C@@H](Cc2ccc(-c3ccccc3)cc2)NC(=O)[C@H](Cc2ccc(-c3ccncc3)cc2)N1`, the IC50 was less than 10 µM. Work on `O=C1COc2ccc(cc2)C[C@@H](C(=O)NCc2nnn[nH]2)NC(=O)[C@H](CCc2ccccc2)NC(=O)[C@@H](Cc2ccc(-c3ccccc3)cc2)NC(=O)[C@H](Cc2ccncc2)N1` yielded an IC50 of less than 10 µM. Molecule `O=C1COc2ccc(cc2)C[C@@H](C(=O)O)NC(=O)[C@H](Cc2ccccc2F)NC(=O)[C@@H](Cc2ccc(-c3ccccc3)cc2)NC(=O)[C@H](Cc2ccncc2)N1` has an IC50 of less than 10 µM. With `O=C1C[C@@H](c2ccc(O)cc2)NC(=O)[C@@H](Cc2ccc(-c3ccccc3)cc2)NC(=O)[C@H](Cc2ccncc2)NC(=O)COc2ccc(cc2)C[C@@H](C(=O)O)N1` the IC50 was greater than 100 µM. `CN1C(=O)COc2ccc(cc2)C[C@@H](C(=O)O)NC(=O)[C@H](CCc2ccccc2)NC(=O)[C@@H](Cc2ccc(-c3ccccc3)cc2)NC(=O)[C@@H]1Cc1ccccc1` gave an IC50 greater than 100 µM. In the case of `O=C1COc2ccc(cc2)C[C@@H](C(=O)N[C@@H](CCc2ccccc2)C(=O)O)NC(=O)[C@H](CCc2ccccc2)NC(=O)[C@@H](Cc2ccc(-c3ccccc3)cc2)NC(=O)[C@H](Cc2ccc(-c3ccccc3)cc2)N1`, the IC50 is reported as greater than 100 µM. `O=C1COc2ccc(cc2)C[C@@H](C(=O)O)NC(=O)[C@H](Cc2cccs2)NC(=O)[C@@H](Cc2ccc(-c3ccccc3)cc2)NC(=O)[C@H](Cc2cccs2)N1` showed an IC50 of less than 10 µM. `CN1C(=O)[C@@H](Cc2ccc(-c3ccccc3)cc2)NC(=O)[C@H](Cc2cccs2)NC(=O)COc2ccc(cc2)C[C@@H](C(=O)O)NC(=O)[C@@H]1Cc1ccccc1` gave an IC50 greater than 100 µM. For `O=C1COc2ccc(cc2)C[C@@H](C(=O)NCCS(=O)(=O)O)NC(=O)[C@H](CCc2ccccc2)NC(=O)[C@@H](Cc2ccc(-c3ccccc3)cc2)NC(=O)[C@H](Cc2cccs2)N1`, the IC50 was less than 10 µM. `COc1cccc(C[C@@H]2NC(=O)[C@@H](Cc3ccc(-c4ccccc4)cc3)NC(=O)[C@H](Cc3cccs3)NC(=O)COc3ccc(cc3)C[C@@H](C(=O)O)NC2=O)c1` was tested, and the IC50 was 10 to 30 µM. `O=C1COc2ccc(cc2)C[C@@H](C(=O)NCCS(=O)(=O)O)NC(=O)[C@H](CCc2ccccc2)NC(=O)[C@@H](Cc2ccc(-c3ccccc3)cc2)NC(=O)[C@H](Cc2ccncc2)N1` was tested, and the IC50 was less than 10 µM. `O=C1COc2ccc(cc2)C[C@@H](C(=O)NCc2nnn[nH]2)NC(=O)[C@H](CCc2ccccc2)NC(=O)[C@@H](Cc2ccc(-c3ccccc3)cc2)NC(=O)[C@H](Cc2ccc(-c3ccccc3)cc2)N1` was tested, and the IC50 was less than 10 µM. `O=C1COc2ccc(cc2)C[C@H](C(=O)NCS(=O)(=O)O)NC(=O)[C@@H](CCc2ccccc2)NC(=O)[C@H](Cc2ccc(-c3ccccc3)cc2)NC(=O)[C@@H](Cc2cccs2)N1` was tested, and the IC50 was less than 10 µM. `O=C1COc2ccc(cc2)C[C@@H](C(=O)NCCc2nnn[nH]2)NC(=O)[C@H](CCc2ccccc2)NC(=O)[C@@H](Cc2ccc(-c3ccccc3)cc2)NC(=O)[C@H](Cc2ccc(-c3ccccc3)cc2)N1` showed an IC50 of less than 10 µM. Molecule `O=C1COc2ccc(cc2)C[C@@H](C(=O)NCCCS(=O)(=O)O)NC(=O)[C@H](CCc2ccccc2)NC(=O)[C@@H](Cc2ccc(-c3ccccc3)cc2)NC(=O)[C@H](Cc2ccc(-c3ccccc3)cc2)N1` has an IC50 of 10 to 30 µM. With `O=C1COc2ccc(cc2)C[C@@H](C(=O)NCS(=O)(=O)O)NC(=O)[C@H](CCc2ccccc2)NC(=O)[C@@H](Cc2ccc(-c3ccccc3)cc2)NC(=O)[C@H](Cc2ccncc2)N1` the IC50 was 10 to 30 µM. `O=C1COc2ccc(cc2)C[C@@H](C(=O)O)NC(=O)[C@H](CCc2ccccc2)NC(=O)[C@@H](Cc2ccc(-c3ccccc3)cc2)NC(=O)[C@H](Cc2cccc(F)c2)N1` showed an IC50 of less than 10 µM. With `O=C1COc2ccc(cc2)C[C@@H](C(=O)N[C@H](CCc2ccccc2)C(=O)O)NC(=O)[C@H](CCc2ccccc2)NC(=O)[C@@H](Cc2ccc(-c3ccccc3)cc2)NC(=O)[C@H](Cc2ccc(-c3ccccc3)cc2)N1` the IC50 was less than 10 µM. Molecule `O=C1COc2ccc(cc2)C[C@@H](C(=O)NCS(=O)(=O)O)NC(=O)[C@H](CCc2ccccc2)NC(=O)[C@@H](Cc2ccc(-c3ccccc3)cc2)NC(=O)[C@H](Cc2ccc(-c3ccccc3)cc2)N1` has an IC50 greater than 100 µM. `O=C1COc2ccc(cc2)C[C@@H](C(=O)NCS(=O)(=O)O)NC(=O)[C@H](Cc2ccccc2)NC(=O)[C@H](Cc2ccc(-c3ccccc3)cc2)NC(=O)[C@H](Cc2cccs2)N1` was tested, and the IC50 was greater than 100 µM. `O=C1COc2ccc(cc2)C[C@@H](C(=O)O)NC(=O)[C@H](CCc2ccccc2)NC(=O)[C@@H](Cc2ccc(-c3ccccc3)cc2)NC(=O)[C@H](Cc2ccc(-c3cccs3)cc2)N1` was tested, and the IC50 was less than 10 µM. For `CC(C)[C@@H]1NC(=O)COc2ccc(cc2)C[C@@H](C(=O)O)NC(=O)[C@H](CCc2ccccc2)NC(=O)[C@@H](Cc2ccc(-c3ccccc3)cc2)NC1=O`, the IC50 was less than 10 µM. `O=C1COc2ccc(cc2)C[C@@H](C(=O)O)NC(=O)[C@H](CCc2ccccc2)NC(=O)[C@@H](Cc2ccc(-c3ccccc3)cc2)NC(=O)[C@H](Cc2ccc(-c3cc(F)cc(F)c3)cc2)N1` gave an IC50 of less than 10 µM. With `O=C1COc2ccc(cc2)C[C@@H](C(=O)O)NC(=O)[C@H](Cc2cccc(F)c2)NC(=O)[C@@H](Cc2ccc(-c3ccccc3)cc2)NC(=O)[C@H](Cc2ccncc2)N1` the IC50 was less than 10 µM.

Same assay, conditions: read-out: Activity (IC50, inhibition of TNFα binding to TNFα R1/Fc); Table 2; tested form: TFA
`O=C1COc2ccc(cc2)C[C@@H](C(=O)O)NC(=O)[C@H](CCc2ccccc2)NC(=O)[C@@H](Cc2ccc(-c3cccnc3)cc2)NC(=O)[C@H](Cc2cccs2)N1` showed an IC50 of less than 10 µM.
